Test results: patent US20150374680A1, “POCHOXIME CONJUGATES USEFUL FOR THE TREATMENT OF HSP90 RELATED PATHOLOGIES” (UNIVERSITE DE STRASBOURG, priority 2010, published 2015)

Target: human HSP90α (Homo sapiens, UniProt P07900)
Test: biochemical

Compound: CC1CC=CC(NC(=O)CSC2OC(CO)C(O)C(O)C2O)CC=CC(=NOCC(=O)N2CCCCC2)Cc2cc(O)cc(O)c2C(=O)O1 (stereo not shown) [As-14(6-S)]
- Kd: 32 nM
